Assay: DPPH radical scavenging activity assessed as reducing ability at 0.05 mM after 60 mins
Type: functional
Parameters: scale not given: the % may be the effect or the level left
Procedure, shortened: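 DPPH in absolute ethanol mixed with equal volume of compound in DMSO (10 mM stock; final 0.05, 0.1, 0.2 mM); absorbance at 517 nm after 20 and 60 min at room temperature; % reducing ability. At least triplicate.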

CC(Cc1ccc(O)c(O)c1)C(C)Cc1ccc(O)c(O)c1 (stereo unspecified) [NORDIHYDROGUAIARETIC ACID]
Activity: 83.1%

From ChEMBL document CHEMBL1649375, “Design, synthesis and pharmacobiological evaluation of novel acrylic acid derivatives acting as lipoxygenase and cyclooxygenase-1 inhibitors with antioxidant and anti-inflammatory activities” (Eur J Med Chem, 2011)
